From publication PMC9362525 (Diabetologia, 2022) come the findings set out here.

The test system of one data set is patients with T2D. The class given is in vivo, human.
Another data set concerns patients with T2DM. The class given is in vivo, human.

Read-outs that look alike come from different tables or passages of the source.

Take NPH-insulin: in the data set with patients with T2D (cardiac MRI), the “∆LVEF Rest, treatment vs washout” value came out at 1±1% and the “∆LVPFR Rest, treatment vs washout” value turned out to be 8 ± 25 mL/s. Also, in the data set with patients with T2D (chronotropic stress), the “∆LVEF Stress, treatment vs washout” value is -1±1% and the “∆LVPFR Stress, treatment vs washout” value was -16 ± 28 mL/s. In addition, in the data set with patients with T2D (fasting, end of 5 weeks), the 3-OH butyrate stood at 0.23 ± 0.02 mM, the FFAs is 0.50 ± 0.05 mM and the serum insulin was found to be 141 ± 16 pM. For the same substance, in the data set on patients with T2DM (all), the “incidence of severe hypoglycaemia” value is listed as 1.8 % per year. Besides, in the data set on patients with T2DM (female), the “incidence of severe hypoglycaemia” value worked out at 1.7 %/year. Also, the “incidence of severe hypoglycaemia” value in the data set on patients with T2DM (male) worked out at 1.9 %/year.
